The results in this text go back to ChEMBL document CHEMBL1629519, “2-Hydroxypropyl-β-cyclodextrin strongly improves water solubility and anti-proliferative activity of pyrazolo[3,4-d]pyrimidines Src-Abl dual inhibitors” (Eur J Med Chem, 2010).

The data set is described as follows: Lipophilicity, log P of the compound. The class given is physicochemical. Particulars: octanol/water.

As a reminder, the logP is the decadic logarithm of the partition coefficient of the neutral form, usually between octanol and water. Read a high logP as a more lipophilic compound. For `CSc1nc(NCCc2ccccc2)c2cnn(CC(Cl)c3ccccc3)c2n1` (stereo unspecified), the logP is 6.01.
